# Test results taken from patent US20030186950A1, “Use of n-heterocyclic substituted salicylates for inhibition of cellular uptake of cystine” (priority 2000, published 2003).
# Tested on: Nb2-SFJCD1 rat lymphoma cells
# Assay: Culture growth inhibition assay in Nb2-SFJCD1 lymphoma cultures
# Conditions: cystine at ca. 3-fold elevated levels (FIG. 5)
compound,measurement,value
"O=C([O-])c1ccccc1O.[Na+] [Salicylate, sodium, sodium salicylate]",Change of growth-inhibitory effect by elevated cystine,only marginally affected
